Ki data for one molecule are collected here from ChEMBL document CHEMBL1145840, “Identification of (3R)-7-hydroxy-N-((1S)-1-[[(3R,4R)-4-(3-hydroxyphenyl)- 3,4-dimethyl-1-piperidinyl]methyl]-2-methylpropyl)-1,2,3,4-tetrahydro- 3-isoquinolinecarboxamide as a novel potent and selective opioid kappa receptor antagonist” (J Med Chem, 2003).

Protein sequences, listed by entry. Tags and fused reporters are not part of them.
UniProt P35372, whole entry: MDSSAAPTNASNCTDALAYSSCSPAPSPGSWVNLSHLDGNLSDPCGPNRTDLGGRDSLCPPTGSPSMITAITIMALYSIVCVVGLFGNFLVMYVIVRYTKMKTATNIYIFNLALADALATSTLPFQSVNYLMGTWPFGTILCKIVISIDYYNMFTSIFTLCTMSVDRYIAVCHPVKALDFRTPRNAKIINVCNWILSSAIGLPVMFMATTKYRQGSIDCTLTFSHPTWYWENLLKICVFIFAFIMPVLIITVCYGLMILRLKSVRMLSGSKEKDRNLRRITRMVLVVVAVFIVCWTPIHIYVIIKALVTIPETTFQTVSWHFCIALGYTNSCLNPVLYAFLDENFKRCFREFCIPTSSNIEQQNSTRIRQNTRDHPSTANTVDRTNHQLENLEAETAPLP
UniProt P41143, whole entry: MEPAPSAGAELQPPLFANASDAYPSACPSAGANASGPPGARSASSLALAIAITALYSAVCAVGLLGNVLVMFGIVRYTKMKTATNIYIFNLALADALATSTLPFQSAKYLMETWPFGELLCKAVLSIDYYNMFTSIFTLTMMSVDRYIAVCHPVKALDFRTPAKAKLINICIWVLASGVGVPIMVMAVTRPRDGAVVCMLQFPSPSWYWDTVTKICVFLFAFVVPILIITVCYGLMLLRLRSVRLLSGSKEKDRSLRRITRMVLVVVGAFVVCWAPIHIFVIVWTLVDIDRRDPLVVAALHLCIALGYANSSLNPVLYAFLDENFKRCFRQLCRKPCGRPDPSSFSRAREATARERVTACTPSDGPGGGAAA

The target in one assay is Mu-type opioid receptor (Homo sapiens, UniProt P35372). Nature of the assay: Binding affinity towards human cloned Opioid receptor mu 1 using [3H]DAMGO.
Assay [1] deals with Delta-type opioid receptor (Homo sapiens, UniProt P41143). In words: Binding affinity towards human cloned Opioid receptor delta 1 using [3H]Cl-DPDPE.

pKi: −log10 of the molar value.

Turning to `CC(C)[C@@H](CN1CC[C@@](C)(c2cccc(O)c2)[C@@H](C)C1)NC(=O)[C@H]1Cc2ccc(O)cc2CN1` [JDTIC], the pKi (commonly the Ki on a negative log10 scale, so that one unit is a factor of ten) is 9.02 on Mu-type opioid receptor and 7.53 in assay [1].
